# Cyclic peptide permeability, from CycPeptMPDB

Source: CycPeptMPDB (Li et al. 2023), which took these values from Furukawa et al. 2016, doi:10.1021/acs.jmedchem.6b01246.

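The data file gives no further conditions (lipid, pH, time, direction or concentration), and values from different papers need not be comparable. The list need not hold all peptides of the study. Peptides that the database sets to -10, its floor, are left out.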

PAMPA measures passive passage through an artificial lipid membrane.
Caco-2: transport across a human colon carcinoma cell monolayer.
Values are log10 P with P in cm/s, so -5 is more permeable than -7.
Cells with "–" have no entry in this list.

compound,PAMPA (log10 cm/s),Caco-2 (log10 cm/s)
CCCC[C@@H]1NC(=O)[C@H](CC(C)C)N(C)C(=O)CN(CCCN2CCCC2=O)C(=O)[C@H](Cc2ccccc2)NC(=O)CN(CC(C)C)C(=O)[C@H]2CCCN2C1=O,-6.03,–
CCCC[C@@H]1NC(=O)[C@H](CC(C)C)N(C)C(=O)CN(CCOC)C(=O)[C@H](Cc2ccccc2)NC(=O)CN(Cc2ccc(Cl)cc2)C(=O)[C@H]2CCCN2C1=O,-5.94,–
CCCC[C@@H]1NC(=O)[C@H](CC(C)C)N(C)C(=O)CN(CCOc2ccccc2)C(=O)[C@H](Cc2ccccc2)NC(=O)CN(CCC)C(=O)[C@H]2CCCN2C1=O,-6.05,–
CCCC[C@@H]1NC(=O)[C@H](CC(C)C)N(C)C(=O)CN(CCc2cccnc2)C(=O)[C@H](Cc2ccccc2)NC(=O)CN(Cc2ccccc2Cn2cccn2)C(=O)[C@H]2CCCN2C1=O,-5.69,–
CCCC[C@@H]1NC(=O)[C@H](CC(C)C)N(C)C(=O)CN(CCc2cccnc2)C(=O)[C@H](Cc2ccc3ccccc3c2)NC(=O)CN(Cc2cc(CC(C)C)on2)C(=O)[C@H]2CCCN2C1=O,-6.93,–
CCCC[C@@H]1NC(=O)[C@H](CC(C)C)N(C)C(=O)CN(CCc2cccnc2)C(=O)[C@H](Cc2ccc3ccccc3c2)NC(=O)CN(CCCOC(C)C)C(=O)[C@H]2CCCN2C1=O,-5.32,–
CCCC[C@@H]1NC(=O)[C@H](CC(C)C)N(C)C(=O)CN(Cc2ccccc2)C(=O)[C@H](C)NC(=O)CN(Cc2ccccc2Cn2cccn2)C(=O)[C@H]2CCCN2C1=O,-5.26,–
CCCC[C@@H]1NC(=O)[C@H](CC(C)C)N(C)C(=O)CN(CCOc2ccccc2)C(=O)[C@H](C)NC(=O)CN(Cc2ccc3c(c2)OCO3)C(=O)[C@H]2CCCN2C1=O,-5.56,–
CCCC[C@@H]1NC(=O)[C@H](CC(C)C)N(C)C(=O)CN(CCCN2CCCC2=O)C(=O)[C@H](CC(C)C)NC(=O)CN(CC)C(=O)[C@H]2CCCN2C1=O,-7.02,–
CCCC[C@@H]1NC(=O)[C@H](CC(C)C)N(C)C(=O)CN(CCOC)C(=O)[C@H](CC(C)C)NC(=O)CN(Cc2ccc(Cl)cc2)C(=O)[C@H]2CCCN2C1=O,-5.34,–
CCCC[C@@H]1NC(=O)[C@H](CC(C)C)N(C)C(=O)CN(CCCN2CCCC2=O)C(=O)[C@H](Cc2ccccc2)NC(=O)CN(CCCOC(C)C)C(=O)[C@H]2CCCN2C1=O,-6.23,–
CCCC[C@@H]1NC(=O)[C@H](CC(C)C)N(C)C(=O)CN(Cc2ccccc2)C(=O)[C@H](C)NC(=O)CN(CC(C)C)C(=O)[C@H]2CCCN2C1=O,-4.98,-5.41
CCCC[C@@H]1NC(=O)[C@H](CC(C)C)N(C)C(=O)CN(CCCc2cnn(C)c2)C(=O)[C@H](CC(C)C)NC(=O)CN(CCCOC(C)C)C(=O)[C@H]2CCCN2C1=O,-5.43,–
CCCC[C@@H]1NC(=O)[C@H](CC(C)C)N(C)C(=O)CN(CCc2cccnc2)C(=O)[C@H](Cc2ccccc2)NC(=O)CN(CCCCc2ccccc2)C(=O)[C@H]2CCCN2C1=O,-6.40,–
CCCC[C@@H]1NC(=O)[C@H](CC(C)C)N(C)C(=O)CN(CCCN2CCCC2=O)C(=O)[C@H](C)NC(=O)CN(CCC)C(=O)[C@H]2CCCN2C1=O,-7.96,–
CCCC[C@@H]1NC(=O)[C@H](CC(C)C)N(C)C(=O)CN(CCCc2cnn(C)c2)C(=O)[C@H](CC(C)C)NC(=O)CN(Cc2ccc(Cl)cc2)C(=O)[C@H]2CCCN2C1=O,-5.52,–

2 of these entries, quoted again:

compound,PAMPA (log10 cm/s),Caco-2 (log10 cm/s)
CCCC[C@@H]1NC(=O)[C@H](CC(C)C)N(C)C(=O)CN(CCc2cccnc2)C(=O)[C@H](Cc2ccc3ccccc3c2)NC(=O)CN(CCCOC(C)C)C(=O)[C@H]2CCCN2C1=O,-5.32,–
CCCC[C@@H]1NC(=O)[C@H](CC(C)C)N(C)C(=O)CN(CCCc2cnn(C)c2)C(=O)[C@H](CC(C)C)NC(=O)CN(CCCOC(C)C)C(=O)[C@H]2CCCN2C1=O,-5.43,–